Results on 29 compounds are retold here after ChEMBL document CHEMBL5728058, “3-(carboxymethyl)-8-amino-2-oxo-1,3-diaza-spiro-[4.5]-decane derivatives” (2020).

Sequences of proteins named here, by UniProt entry; tags and fusion partners are left off.
UniProt P35372, whole entry, looked up: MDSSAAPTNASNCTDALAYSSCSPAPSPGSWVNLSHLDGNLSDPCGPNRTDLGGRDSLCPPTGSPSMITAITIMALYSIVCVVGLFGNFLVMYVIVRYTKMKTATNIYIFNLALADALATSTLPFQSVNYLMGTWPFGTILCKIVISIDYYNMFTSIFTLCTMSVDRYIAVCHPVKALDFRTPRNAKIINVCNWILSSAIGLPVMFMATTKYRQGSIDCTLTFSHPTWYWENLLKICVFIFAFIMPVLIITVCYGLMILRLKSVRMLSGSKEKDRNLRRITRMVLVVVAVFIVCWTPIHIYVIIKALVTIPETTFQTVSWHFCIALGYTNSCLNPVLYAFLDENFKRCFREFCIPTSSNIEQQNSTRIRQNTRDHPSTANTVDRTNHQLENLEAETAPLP

This test addresses Mu-type opioid receptor (Homo sapiens, UniProt P35372). The test is described as follows: Human Mu-Opioid Peptide (hMOP) Receptor Binding Assay: The hMOP receptor binding assay was performed as homogeneous SPA-assay (scintillation proximity assay) using the assay buffer 50 mM TRIS-HCl (pH 7.4) supplemented with 0.052 mg/ml bovine serum albumin (Sigma-Aldrich Co., St. Louis, Mo.). The final assay volume (250 μl/well) included 1 nM of [N-allyl-2,3-3H]naloxone as ligand (PerkinElmer Life. On the technique in general: SPA uses beads or plates that emit light when radiolabelled molecules are held near them.

Molecules are shown by their SMILES. Several values for one entry are separate records, joined by “and”; a condition that tells them apart may be missing. Equal values may be shown once.

For the compound `COc1cnccc1NC(=O)CN1C[C@]2(CC[C@](c3ccccc3)(N(C)C)CC2)N(CC2CCC2)C1=O`, the inhibitory constant (Ki) was found to be 0.0435 µM. The figure for `CN(C)[C@]1(c2ccccc2)CC[C@]2(CC1)CN(CC(=O)NCC1CCCC[C@H]1O)C(=O)N2CC1CCC1` (some centres undefined) is 0.0205 µM. Next, `CN(C)[C@]1(c2ccccc2)CC[C@]2(CC1)CN(CC(=O)N1CCN(S(C)(=O)=O)CC1)C(=O)N2CC1CCC1`: 0.049 µM. The figure for `CN(C)C(=O)CNC(=O)CN1C[C@]2(CC[C@](c3ccccc3)(N(C)C)CC2)N(CC2CCC2)C1=O` is 0.0265 µM and 0.0772 µM; for `CN(C)[C@]1(c2ccccc2)CC[C@]2(CC1)CN(CC(=O)N1CCOCC1)C(=O)N2CC1CCC1` it is 0.051 µM; for `CN(C)[C@]1(c2ccccc2)CC[C@@]2(CC1)CN(CC(=O)N1CCS(=O)(=O)CC1)C(=O)N2` it is 0.011 µM. Compound `COCCCN1C(=O)N(CC(=O)Nc2ccncn2)C[C@]12CC[C@](c1ccccc1)(N(C)C)CC2` came in with a Ki of 0.15 µM. The figure for `CN(C)[C@]1(c2ccccc2)CC[C@]2(CC1)CN(CC(=O)NCc1ncccn1)C(=O)N2CC1CCC1` is 0.0265 µM.

Regarding `CN(C)[C@]1(c2ccccc2)CC[C@]2(CC1)CN(CC(=O)Nc1cccc(C#N)n1)C(=O)N2CC1CCC1`, affinity was put at a Ki of 0.0673 µM. Against the preceding compound, the Ki is about 2.5-fold higher. On to `CN(C)[C@]1(c2ccccc2)CC[C@]2(CC1)CN(CC(=O)N1CCS(=O)(=O)CC1)C(=O)N2CC1CCC1`, for which the Ki is 0.03 µM and 0.0567 µM.

`CN(C)[C@]1(c2ccccc2)CC[C@]2(CC1)CN(CC(=O)Nc1cnc(O)nc1)C(=O)N2CC1CCC1`: the Ki was 0.0315 µM. This counts as double-digit nanomolar. For `CNC(=O)c1ccc(NC(=O)CN2C[C@]3(CC[C@](c4ccccc4)(N(C)C)CC3)N(CC3CCC3)C2=O)nc1`, affinity was put at a Ki of 0.023 µM. Next, `CNC(=O)CN1C[C@]2(CC[C@](c3ccccc3)(N(C)C)CC2)N(CC2(O)CCC2)C1=O`: 0.0845 µM and 0.52 µM; `CN(C)[C@]1(c2ccccc2)CC[C@]2(CC1)CN(CC(=O)N1CCC(S(C)(=O)=O)CC1)C(=O)N2CC1CC1`: 0.205 µM; `COc1cncc(NC(=O)CN2C[C@]3(CC[C@](c4ccccc4)(N(C)C)CC3)N(CC3CCC3)C2=O)n1`: 0.053 µM. `Cc1ncccc1CNC(=O)CN1C[C@]2(CC[C@](c3ccccc3)(N(C)C)CC2)N(CC2CCC2)C1=O` showed a Ki of 0.015 µM. The figure for `CN(C)[C@]1(c2ccccc2)CC[C@]2(CC1)CN(CC(=O)NCc1ccncn1)C(=O)N2CC1CCC1` is 0.0104 µM; for `CN(C)[C@]1(c2ccccc2)CC[C@]2(CC1)CN(CC(=O)N1CCNC(=O)C1)C(=O)N2CC1CCC1` it is 0.038 µM; for `COc1ccc(NC(=O)CN2C[C@]3(CC[C@](c4ccccc4)(N(C)C)CC3)N(CC3CCC3)C2=O)cn1` it is 0.0345 µM. For `CN(C)[C@]1(c2ccccc2)CC[C@]2(CC1)CN(CC(=O)N1C[C@H](O)[C@@H](O)C1)C(=O)N2CC1CCC1`, the Ki came to 0.045 µM. Compound `CN(C)[C@]1(c2ccccc2)CC[C@]2(CC1)CN(CC(=O)NC1CC1)C(=O)N2CC1CCC1` showed a Ki of 0.0126 µM. Regarding `Cc1cnccc1NC(=O)CN1C[C@]2(CC[C@](c3ccccc3)(N(C)C)CC2)N(CC2CCC2)C1=O`, the inhibition constant (Ki) came out at 0.057 µM. This Ki is about 4.5-fold higher than that of the compound before. The compound `CN(C)[C@]1(c2ccccc2)CC[C@]2(CC1)CN(CC(=O)Nc1nncs1)C(=O)N2CC1CCC1` returned a Ki of 0.064 µM. Next, `CSc1ccnc(NC(=O)CN2C[C@]3(CC[C@](c4ccccc4)(N(C)C)CC3)N(CC3CCC3)C2=O)c1`: 0.18 µM; `CN[C@]1(c2ccccc2)CC[C@]2(CC1)CN(CC(=O)NCC(N)=O)C(=O)N2CC1CCC1`: 0.41 µM; `CN(C)[C@]1(c2ccccc2)CC[C@]2(CC1)CN(CC(=O)Nc1cccnn1)C(=O)N2CC1CCC1`: 0.0325 µM. Next, `COCCCN1C(=O)N(CC(=O)NCC(N)=O)C[C@]12CC[C@](c1ccccc1)(N(C)C)CC2`: 0.086 µM; `CN(C)[C@]1(c2ccccc2)CC[C@]2(CC1)CN(CC(=O)N1CCn3ncnc3C1)C(=O)N2CC1CCC1`: 0.023 µM. The figure for `CN(C)[C@]1(c2ccccc2)CC[C@]2(CC1)CN(CC(=O)N1CC[C@H](O)[C@@H](O)C1)C(=O)N2CC1CCC1` is 0.078 µM.

A word on the Ki: it is a measure of affinity in units of concentration, obtained from inhibition or displacement. A higher Ki goes with a looser hold on the target.
